CycPeptMPDB entries from one study

Values of Kelly et al. 2021, doi:10.1021/jacs.0c06115, as listed in CycPeptMPDB.

PAMPA is the parallel artificial membrane permeability assay, which has no cells and reads passive diffusion.
Values are log10 P with P in cm/s, so -5 is more permeable than -7.

structure (SMILES),PAMPA (log10 cm/s)
CC(=O)N1CCC[C@H]1C(=O)N(C)[C@@H](CC(C)C)C(=O)N[C@@H]1C(=O)N(C)[C@@H](CC(C)C)C(=O)N[C@@H](CC(C)C)C(=O)N(C)[C@@H](CC(C)C)C(=O)N(C)[C@H](C)C(=O)N[C@H](CC(C)C)C(=O)N2CCC[C@H]2C(=O)O[C@@H]1C,-6.00
CC(=O)N1CCC[C@@H]1C(=O)N(C)[C@@H](CC(C)C)C(=O)N[C@@H]1C(=O)N[C@@H](CC(C)C)C(=O)N[C@@H](CC(C)C)C(=O)N[C@@H](CC(C)C)C(=O)N(C)[C@@H](C)C(=O)N[C@H](CC(C)C)C(=O)N2CCC[C@@H]2C(=O)O[C@@H]1C,-5.93
CC(=O)N1CCC[C@H]1C(=O)N(C)[C@H](CC(C)C)C(=O)N[C@@H]1C(=O)N[C@H](CC(C)C)C(=O)N(C)[C@H](CC(C)C)C(=O)N[C@@H](CC(C)C)C(=O)N(C)[C@H](C)C(=O)N[C@H](CC(C)C)C(=O)N2CCC[C@@H]2C(=O)O[C@@H]1C,-5.33
CC(=O)N1CCC[C@H]1C(=O)N[C@@H]1C(=O)N[C@H](CC(C)C)C(=O)N[C@@H](CC(C)C)C(=O)N[C@@H](CC(C)C)C(=O)N(C)[C@@H](CC(C)C)C(=O)N(C)[C@@H](C)C(=O)N[C@@H](CC(C)C)C(=O)N2CCC[C@@H]2C(=O)O[C@@H]1C,-6.27
CC(=O)N1CCC[C@@H]1C(=O)N(C)[C@H](CC(C)C)C(=O)N[C@@H]1C(=O)N[C@H](CC(C)C)C(=O)N(C)[C@@H](CC(C)C)C(=O)N[C@@H](CC(C)C)C(=O)N(C)[C@H](C)C(=O)N[C@H](CC(C)C)C(=O)N2CCC[C@H]2C(=O)O[C@@H]1C,-5.62
CC(=O)N1CCC[C@@H]1C(=O)N(C)[C@H](CC(C)C)C(=O)N[C@@H]1C(=O)N(C)[C@H](CC(C)C)C(=O)N(C)[C@@H](CC(C)C)C(=O)N(C)[C@H](CC(C)C)C(=O)N(C)[C@H](C)C(=O)N[C@H](CC(C)C)C(=O)N2CCC[C@H]2C(=O)O[C@@H]1C,-5.43
CC(=O)N1CCC[C@@H]1C(=O)N(C)[C@@H](CC(C)C)C(=O)N[C@@H]1C(=O)N(C)[C@H](CC(C)C)C(=O)N[C@H](CC(C)C)C(=O)N[C@H](CC(C)C)C(=O)N[C@H](C)C(=O)N[C@@H](CC(C)C)C(=O)N2CCC[C@H]2C(=O)O[C@@H]1C,-6.05
CC(=O)N1CCC[C@H]1C(=O)N[C@@H]1C(=O)N[C@H](CC(C)C)C(=O)N(C)[C@H](CC(C)C)C(=O)N[C@@H](CC(C)C)C(=O)N(C)[C@H](CC(C)C)C(=O)N(C)[C@@H](C)C(=O)N[C@@H](CC(C)C)C(=O)N2CCC[C@@H]2C(=O)O[C@@H]1C,-5.17
CC(=O)N1CCC[C@@H]1C(=O)N(C)[C@@H](CC(C)C)C(=O)N[C@@H]1C(=O)N[C@H](CC(C)C)C(=O)N[C@@H](CC(C)C)C(=O)N[C@@H](CC(C)C)C(=O)N(C)[C@H](C)C(=O)N[C@@H](CC(C)C)C(=O)N2CCC[C@@H]2C(=O)O[C@@H]1C,-5.71
CC(=O)N1CCC[C@@H]1C(=O)N(C)[C@H](CC(C)C)C(=O)N[C@@H]1C(=O)N[C@@H](CC(C)C)C(=O)N(C)[C@@H](CC(C)C)C(=O)N[C@@H](CC(C)C)C(=O)N(C)[C@H](C)C(=O)N[C@H](CC(C)C)C(=O)N2CCC[C@@H]2C(=O)O[C@@H]1C,-5.46
CC(=O)N1CCC[C@@H]1C(=O)N(C)[C@H](CC(C)C)C(=O)N[C@@H]1C(=O)N[C@H](CC(C)C)C(=O)N(C)[C@H](CC(C)C)C(=O)N(C)[C@H](CC(C)C)C(=O)N(C)[C@@H](C)C(=O)N[C@@H](CC(C)C)C(=O)N2CCC[C@H]2C(=O)O[C@@H]1C,-5.62
CC(=O)N1CCC[C@H]1C(=O)N(C)[C@@H](CC(C)C)C(=O)N[C@@H]1C(=O)N(C)[C@@H](CC(C)C)C(=O)N(C)[C@@H](CC(C)C)C(=O)N[C@H](CC(C)C)C(=O)N(C)[C@H](C)C(=O)N[C@H](CC(C)C)C(=O)N2CCC[C@H]2C(=O)O[C@@H]1C,-6.78
CC(=O)N1CCC[C@H]1C(=O)N(C)[C@@H](CC(C)C)C(=O)N[C@@H]1C(=O)N[C@H](CC(C)C)C(=O)N(C)[C@H](CC(C)C)C(=O)N[C@@H](CC(C)C)C(=O)N(C)[C@@H](C)C(=O)N[C@H](CC(C)C)C(=O)N2CCC[C@H]2C(=O)O[C@@H]1C,-5.18
CC(=O)N1CCC[C@@H]1C(=O)N(C)[C@@H](CC(C)C)C(=O)N[C@@H]1C(=O)N(C)[C@@H](CC(C)C)C(=O)N[C@H](CC(C)C)C(=O)N[C@H](CC(C)C)C(=O)N(C)[C@H](C)C(=O)N[C@@H](CC(C)C)C(=O)N2CCC[C@@H]2C(=O)O[C@@H]1C,-5.39
CC(=O)N1CCC[C@@H]1C(=O)N(C)[C@H](CC(C)C)C(=O)N[C@@H]1C(=O)N[C@H](CC(C)C)C(=O)N[C@H](CC(C)C)C(=O)N(C)[C@H](CC(C)C)C(=O)N(C)[C@H](C)C(=O)N[C@@H](CC(C)C)C(=O)N2CCC[C@H]2C(=O)O[C@@H]1C,-6.35

The first 2 entries again:

| structure (SMILES) | PAMPA (log10 cm/s) |
|---|---|
| CC(=O)N1CCC[C@H]1C(=O)N(C)[C@@H](CC(C)C)C(=O)N[C@@H]1C(=O)N(C)[C@@H](CC(C)C)C(=O)N[C@@H](CC(C)C)C(=O)N(C)[C@@H](CC(C)C)C(=O)N(C)[C@H](C)C(=O)N[C@H](CC(C)C)C(=O)N2CCC[C@H]2C(=O)O[C@@H]1C | -6.00 |
| CC(=O)N1CCC[C@@H]1C(=O)N(C)[C@@H](CC(C)C)C(=O)N[C@@H]1C(=O)N[C@@H](CC(C)C)C(=O)N[C@@H](CC(C)C)C(=O)N[C@@H](CC(C)C)C(=O)N(C)[C@@H](C)C(=O)N[C@H](CC(C)C)C(=O)N2CCC[C@@H]2C(=O)O[C@@H]1C | -5.93 |

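Conditions beyond the assay type are not listed; see the original paper. Other peptides of the study may be missing here. Entries at the database's floor value (log10 P of -10) are not listed.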